Laboratory results published in patent US20230044690A1, “PROGESTERONE FORMULATION TO TRIGGER OVULATION AND PROVIDE LUTEAL PHASE SUPPORT” (AUGUSTA UNIVERSITY RESEARCH INSTITUTE, INC., priority 2019, published 2023).

System: ovulation
Test: Case study 3, first controlled stimulation cycle: Clomiphene citrate, trigger shot with 10,000 IU Novarel
Type: in vivo, human
Conditions: 2 weeks post trigger, 100 mg Clomiphene citrate 5 days, 200 mg progesterone suppositories daily
Procedure: In the first controlled stimulation cycle, the patient received 100 mg Clomiphene citrate (CC) for 5 days starting on the 5th day of their period. […] The additional luteal phase support was initiated on day 3 after the trigger shot with 10,000 IU of Novarel, followed by daily suppositories with 200 mg of progesterone by suppositories.

“Novarel: trigger shot with 10,000 IU of Novarel” was tested, and the “Patient's hCG” value was “negative”.
